scFv variants of Ab-14 (light chain) against a SARS-CoV-2 spike peptide

Data: MIT Lincoln Laboratory AlphaSeq set, Engelhart et al. 2022, doi:10.1038/s41597-022-01779-4, as distributed in FLAb.

Binding partner: SARS-CoV-2 spike HR2 peptide, sequence PDVDLGDISGINAS.

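Phage display of a naive human antibody library on the peptide gave the parent. Variants in AAYL50 differ from the parent at up to three CDR positions; double and triple changes were sampled at random. AlphaSeq pools MATa yeast showing the antibodies with MATalpha yeast showing the peptide. The frequency of each diploid, read from paired DNA barcodes, reflects how well the two displayed proteins bind. Each replicate has its own calibration line, from reference interactions of the BCL2 family. There are three technical replicates.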

Parent: Ab-14, a human scFv built as VH, a 15-residue (Gly4Ser)3 linker, VL. Only the CDRs of the light chain vary.
VH: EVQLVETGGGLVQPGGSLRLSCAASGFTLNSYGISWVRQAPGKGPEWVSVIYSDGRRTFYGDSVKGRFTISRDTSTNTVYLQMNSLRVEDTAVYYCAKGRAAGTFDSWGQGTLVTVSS
VL: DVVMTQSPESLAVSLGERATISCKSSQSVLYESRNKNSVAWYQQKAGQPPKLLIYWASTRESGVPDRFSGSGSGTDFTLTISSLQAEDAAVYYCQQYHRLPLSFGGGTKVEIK

Positions count from residue 1 of the parent VL; S58K puts K in place of S.
This list gathers variants with a substitution at P101 (VL, numbered from residue 1).
The read-out is the apparent dissociation constant on a log10 scale (nM): the lower, the stronger.
A mean of the replicates is given; it leaves out those without a signal.
A pair that was not seen in any replicate is written "nd"; this usually means weak binding, but a binder can also be missed.
Three control strains display no target. For library AAYL50, 18% of the pairings with them gave a signal, with a median of 4.19 and one signal in twenty below 2.99, so weak values seen in few replicates may be background.

* S58K+L100C+P101I: 2.56 (3 of 3 replicates)
* S33K+R60C+P101Y: 4.79 (1 of 3 replicates)
* V29F+T59R+P101D: nd (0 of 3 replicates)
* V29S+S33H+P101Y: 5.03 (1 of 3 replicates)
* R60H+R99K+P101V: nd (0 of 3 replicates)
* Q27D+N35Q+P101Q: nd (0 of 3 replicates)
* S28Y+R99D+P101L: nd (0 of 3 replicates)
* Q27Y+A40C+P101D: 4.32 (1 of 3 replicates)
* N35E+A57M+P101Q: nd (0 of 3 replicates)
* S25F+K36G+P101K: 0.26 (3 of 3 replicates)
* N35C+Q95K+P101G: nd (0 of 3 replicates)
* W56F+Y97C+P101T: 1.27 (3 of 3 replicates)
* S25K+K36C+P101K: nd (0 of 3 replicates)
* K24M+Y97I+P101C: 1.34 (3 of 3 replicates)
* A57L+P101D+L102N: nd (0 of 3 replicates)
* R34G+T59D+P101I: 1.98 (3 of 3 replicates)
* S25L+P101Y+L102R: nd (0 of 3 replicates)
* W56R+R60G+P101I: nd (0 of 3 replicates)
* S58W+R99S+P101D: 3.88 (2 of 3 replicates)
* Q95C+P101Q: 1.56 (3 of 3 replicates)
* S33T+W56K+P101L: 4.94 (1 of 3 replicates)
* N35Q+P101E+S103C: 2.74 (3 of 3 replicates)
* T59V+R60S+P101V: 4.59 (1 of 3 replicates)
* N35H+P101L+L102N: nd (0 of 3 replicates)
* S26G+N37R+P101T: nd (0 of 3 replicates)
* S28H+A57C+P101Y: 5.26 (3 of 3 replicates)
* T59P+P101Q+S103W: nd (0 of 3 replicates)
* N37S+A40N+P101N: nd (0 of 3 replicates)
* A57V+H98Y+P101I: 3.14 (3 of 3 replicates)
* Q27C+V29N+P101I: 1.64 (3 of 3 replicates)
* V29F+P101M: 3.08 (1 of 3 replicates)
* K24M+S38T+P101K: nd (0 of 3 replicates)
* E32A+R60M+P101S: 2.44 (2 of 3 replicates)
* V29H+V39Q+P101R: nd (0 of 3 replicates)
* N35C+S62M+P101V: 1.62 (3 of 3 replicates)
* S38I+Q96D+P101I: nd (0 of 3 replicates)

Picked from the list: the 3 lowest averages where every replicate gave a value.

{"changes": "S25F+K36G+P101K", "mean log10 Kd (nM)": "0.26", "replicates with signal": "3/3"}
{"changes": "W56F+Y97C+P101T", "mean log10 Kd (nM)": "1.27", "replicates with signal": "3/3"}
{"changes": "K24M+Y97I+P101C", "mean log10 Kd (nM)": "1.34", "replicates with signal": "3/3"}